pKd, pKi: −log10 of the molar value. Like-named read-outs stand apart in the source and are kept apart here.
Tests used:
AcAChBP [1] = molecular target: T1, AcAChBP (Aplysia californica, UniProt Q8WSF8, A155V/A60V); settings: cited from earlier work; for N (sites) / ΔG / ΔH / −TΔS: ITC
AcAChBP [2] = molecular target: T1, AcAChBP; experiment: Isothermal titration calorimetry (ITC) of ligand binding to AcAChBP
AcAChBP [3] = molecular target: T1, AcAChBP; experiment: Equilibrium tryptophan fluorescence-quenching assay
neuronal α4β2 nAChRs = settings: radioligand competition binding assay, ref Ouyang et al., 2015; cited from earlier work

Sequences of proteins named here, by UniProt entry; tags and fusion partners are left off. Residues count along the entry.
UniProt Q8WSF8, 20-236 A155V/A60V limits assumed: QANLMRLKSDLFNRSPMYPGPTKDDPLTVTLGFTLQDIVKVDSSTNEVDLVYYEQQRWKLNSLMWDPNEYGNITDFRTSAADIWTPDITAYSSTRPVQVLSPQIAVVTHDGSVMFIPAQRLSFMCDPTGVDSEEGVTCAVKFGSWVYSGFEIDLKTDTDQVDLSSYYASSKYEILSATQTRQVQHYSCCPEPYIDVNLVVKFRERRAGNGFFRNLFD

| Structure (SMILES) | N (sites) (AcAChBP [1]; ref Davis et al. (2020)) | ΔG (AcAChBP [1]; ref Davis et al. (2020)) | ΔH (AcAChBP [1]; ref Davis et al. (2020)) | −TΔS (AcAChBP [1]; ref Davis et al. (2020)) | N (sites) (AcAChBP [1]; ref Rucktooa et al. (2012)) | ΔG (AcAChBP [1]; ref Rucktooa et al. (2012)) | ΔH (AcAChBP [1]; ref Rucktooa et al. (2012)) | −TΔS (AcAChBP [1]; ref Rucktooa et al. (2012)) | pKd (AcAChBP [1]; read-out: K d1 (dissociation constant from ITC), ref Davis et al. (2020)) | pKd (AcAChBP [1]; read-out: K d1 (dissociation constant from ITC), ref Rucktooa et al. (2012)) | ΔG (AcAChBP [2]; 25°C, n = 3, standard error) | ΔH (AcAChBP [2]; 25°C, n = 3, standard error) | −TΔS (AcAChBP [2]; 25°C, n = 3, standard error) | N (sites), molar ratio (AcAChBP [2]; 25°C, n = 3, standard error) | pKd (AcAChBP [2]; read-out: K d1 (dissociation constant from ITC), 25°C, n = 3, standard error) | Hill coefficient (AcAChBP [3]; fluorescence titration fitted with specific binding with Hill slope) | pKd (AcAChBP [3]; read-out: K d2 (dissociation constant from fluorescence measurements), tryptophan fluorescence, emission 337 nm, room temperature, n = 3, standard error) | pKi (neuronal α4β2 nAChRs) |
| --- | --- | --- | --- | --- | --- | --- | --- | --- | --- | --- | --- | --- | --- | --- | --- | --- | --- | --- |
| O=c1cccc2n1C[C@@H]1CNC[C@H]2C1 | 0.6 ± 0.01 | -8.6 ± 0.3 kcal/mol | -15.2 ± 1.2 kcal/mol | 6.6 ± 1.4 kcal/mol | 0.6 | -7.9 kcal/mol | -13.3 kcal/mol | 5.4 kcal/mol | 6.22 | 5.80 |  |  |  |  |  |  |  |  |
| CN1CCC[C@H]1c1cccnc1 |  |  |  |  | 0.6 | -8.3 kcal/mol | -12.5 kcal/mol | 4.2 kcal/mol |  |  | -7.7 ± 0.1 kcal/mol | -17.8 ± 0.9 kcal/mol | 10.0 ± 0.9 kcal/mol |  |  |  |  |  |
| C[C@@H]1CC2C3Cn4c(cccc4=O)C(CN2C)C31 (stereo partly shown) |  |  |  |  |  |  |  |  |  |  | -10.4 ± 0.2 kcal/mol | -8.9 ± -0.1 kcal/mol | -1.5 ± 0.3 kcal/mol | 0.7 ± 0.03 | 7.60 | 2.1 ) | 7.40 | > 9.00 |

Source: PMC9435674, “Delineating the activity of the potent nicotinic acetylcholine receptor agonists (+)-anatoxin-a and (−)-hosieine-A” (2022)
